Chains of the proteins cited; added tags and fusions are not shown.
UniProt P35462, whole entry: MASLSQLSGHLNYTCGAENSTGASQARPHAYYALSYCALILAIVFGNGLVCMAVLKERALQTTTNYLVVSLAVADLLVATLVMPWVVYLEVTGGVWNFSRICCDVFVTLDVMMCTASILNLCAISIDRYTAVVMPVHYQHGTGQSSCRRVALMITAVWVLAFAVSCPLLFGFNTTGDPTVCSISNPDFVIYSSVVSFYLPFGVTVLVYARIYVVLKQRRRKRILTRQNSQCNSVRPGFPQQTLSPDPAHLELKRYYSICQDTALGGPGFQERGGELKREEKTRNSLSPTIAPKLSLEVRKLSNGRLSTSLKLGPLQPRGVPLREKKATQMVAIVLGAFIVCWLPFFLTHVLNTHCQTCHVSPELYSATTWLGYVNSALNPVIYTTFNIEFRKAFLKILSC

According to ChEMBL document CHEMBL3739358 (J Med Chem, 2015):

Target: D(3) dopamine receptor (Homo sapiens, UniProt P35462)
Test: Agonist activity at human D3 receptor expressed in CHO cells by [35S]GTPgammaS binding assay
Type: functional, cell-based

SMILES: CCCN1CCC[C@@H](c2cccc(O)c2)C1 [PRECLAMOL]
- EC50: 51.9 nM
